The subject of the data set is mouse fibroblast 10T1/2 cells. Nature of the data set: Cytotoxicity test (cell counting kit-8). The note with it: 0.01-50 mM, exposed 20 hr, control as 1 (FIG. 21). (In general: Formazan colour is commonly taken as a measure of viable cells.)

As to proline-tetrabutylphosphonium salt, the “cytotoxicity (specific survival rate)” value is “very high cytotoxicity”.

The record behind these values is patent publication US20170319545A1, “METHOD FOR CONTROLLING SKIN PENETRATION” (AJINOMOTO CO., INC., priority 2015, published 2017).
